Earlier results in US5981555A (dated 1999).

System: inflammation
Details: Physician's Desk Reference, 51st ed.; cited from earlier work

SMILES: CC(C)Cc1ccc(C(C)C(=O)O)cc1 (stereo not shown) [ibuprofen]
- Minimum Anti-inflammatory Dosage: 300 mg
